From published antibiotic growth screens (doi:10.1038/s41589-023-01349-8)
The list shows a part of the results.

Each molecule was assayed on A. baumannii ATCC 17978 (assay: relative growth (fraction of control); higher = less inhibition). Conditions: 50 µM.
In the case of `N[C@H](Cc1ccccc1)C(=O)O`, the relative growth is reported as 0.955.
In the case of `O=c1c(-c2ccc(O)cc2)coc2cc(O)cc(O)c12`, the relative growth is reported as 1.07.
Molecule `N[C@@H](c1ccccc1)c1cc2ccccc2cn1` has a relative growth of 0.776.
`NC(=O)Cn1c(=O)c2ccccc2n(CC(N)=O)c1=O` was tested, and the relative growth was 1.06.
With `O=C(C[C@@H]1C=C[C@@H](NC(=O)CN2CCOCC2)[C@@H](CO)O1)NCCc1ccncc1` the relative growth was 1.05.
For `C[C@H](NC(=O)C[C@@H]1C=C[C@@H](NC(=O)CN2CCOCC2)[C@@H](CO)O1)c1ccccc1`, the relative growth was 1.08.
Work on `Cn1cnc(S(=O)(=O)N[C@@H]2C=C[C@@H](CC(=O)NCC3CC3)O[C@H]2CO)c1` yielded a relative growth of 1.12.
Work on `C=CCOC(=O)[C@@H]1[C@H]2C(=O)O[C@H](c3ccccc3)[C@H](c3ccccc3)N2[C@H](c2ccc(OCCOC(=O)[C@H]3C[C@H]4C(=O)N5CCC[C@H]5C(=O)N4[C@H]3c3ccc(O)cc3)cc2)[C@@]12C(=O)Nc1ccc(I)cc12` yielded a relative growth of 1.3.
In the case of `O=C(CCc1cn(CC(=O)N2CCC3(CC2)C(=O)NCN3c2ccccc2)nn1)NO`, the relative growth is reported as 0.865.
With `COC(=O)C[C@H]1CC[C@@H]2[C@H](COC[C@H](O)CN2S(=O)(=O)c2ccccc2C)O1` the relative growth was 1.06.
Molecule `C[C@H]1CN([C@@H](C)CO)C(=O)Cc2cc(NC(=O)Nc3cccc4c3CCCC4)ccc2O[C@H]1CN(C)S(=O)(=O)c1ccc(Cl)cc1` has a relative growth of 1.04.
`COCC#Cc1ccc2c(c1)O[C@@H](CN(C)Cc1ccc(F)cc1)[C@@H](C)CN([C@H](C)CO)S2(=O)=O` was tested, and the relative growth was 0.705.
With `C[C@]12CCC(=O)C=C1CCC1C2C(=O)C[C@@]2(C)C1CC[C@]2(O)C(=O)CO` (stereo not given in full) the relative growth was 0.942.
`CNc1[nH]cnc(=S)c1N` showed a relative growth of 0.883.
For `CCCN1C[C@H](C)[C@H](OC)CN(C)C(=O)c2cc(NS(=O)(=O)c3cn(C)cn3)ccc2OC[C@H]1C`, the relative growth was 1.02.
`CC=CC(=O)N(CC)c1ccccc1C` (mixture of isomers) showed a relative growth of 0.971.
Molecule `COCCNC(=O)C[C@@H]1CC[C@H](NS(=O)(=O)c2ccc(C)cc2)[C@@H](CO)O1` has a relative growth of 1.08.
For `CCOc1ccccc1OCCNC(C)Cc1ccc(OC)c(S(N)(=O)=O)c1.Cl` (stereo not given), the relative growth was 0.917.
`C[C@H]1CN([C@@H](C)CO)C(=O)Cc2cc(NC(=O)Nc3cccc4c3CCCC4)ccc2O[C@H]1CN(C)S(=O)(=O)c1ccc(Oc2ccccc2)cc1` was tested, and the relative growth was 1.11.
For `CC1(C)O[C@@H]2CC3C4CCC5=CC(=O)C=C[C@]5(C)C4[C@@H](O)C[C@]3(C)[C@]2(C(=O)CO)O1` (stereo not given in full), the relative growth was 0.881.
`COC(=O)[C@H]1[C@H]2C[C@@H]3c4[nH]c5cc(OC)ccc5c4CCN3C[C@H]2C[C@@H](OC(=O)c2cc(OC)c(OC)c(OC)c2)[C@@H]1OC` gave a relative growth of 1.15.
`Cc1noc(C)c1S(=O)(=O)N(C)C[C@@H]1OCc2cn(nn2)CCCC(=O)N([C@H](C)CO)C[C@H]1C` gave a relative growth of 0.951.
With `O=C(C[C@@H]1CC[C@@H](NC(=O)c2ccc(F)cc2)[C@H](CO)O1)NCc1ccncn1` the relative growth was 0.848.
With `C[C@]1(C(=O)NCC(F)(F)F)c2ccccc2C(=O)N(Cc2cc(F)cc(C(F)(F)F)c2)[C@H]1c1ccc(CO)cc1` the relative growth was 0.918.
In the case of `C[C@@H]1CN([C@@H](C)CO)S(=O)(=O)c2ccc(C#CC3(O)CCCC3)cc2O[C@@H]1CN(C)C(=O)c1cccnc1`, the relative growth is reported as 1.05.
For `CCOC(=O)Cc1csc(/C(=N/O)C(N)=O)n1`, the relative growth was 1.1.
Molecule `CN1CCN(C(=O)C[C@@H]2CC[C@@H]3[C@H](COC[C@H](O)CN3C(=O)Nc3ccc4c(c3)OCO4)O2)CC1` has a relative growth of 0.999.
With `CO[C@@H](CN(C)C(=O)c1ccc2c(c1)OCO2)[C@@H](C)CN([C@H](C)CO)S(=O)(=O)c1ccc(F)cc1` the relative growth was 0.755.
Work on `CC(=O)N(C)C[C@@H]1Oc2ncc(C#C[C@H](C)O)cc2C(=O)N([C@H](C)CO)C[C@H]1C` yielded a relative growth of 0.846.
`C[C@H]1NC(=O)N[C@@H]1CCCCC(=O)O` was tested, and the relative growth was 0.911.
`COc1ccc(C#Cc2ccc3c(c2)[C@]2(C(=O)N3)[C@H](c3ccccc3OCCO)N3[C@H](c4ccccc4)[C@H](c4ccccc4)OC(=O)[C@H]3[C@@H]2C(=O)N2CCN(c3ncccn3)CC2)cc1` gave a relative growth of 1.03.
With `O=C(O[C@@H]1Cc2c(O)cc(O)cc2O[C@@H]1c1cc(O)c(O)c(O)c1)c1cc(O)c(O)c(O)c1` the relative growth was 0.807.
Work on `CCOC(=O)[C@H](CCc1ccccc1)N[C@@H](C)C(=O)N1[C@H](C(=O)O)C[C@H]2CCCC[C@@H]21` yielded a relative growth of 0.871.
With `C[C@H]1COC(=O)[C@H](NC(=O)OCC2c3ccccc3-c3ccccc32)CC=CC[C@@H](CC(=O)NCCO)C(=O)N1` the relative growth was 0.864.
`C[C@@H]1O[C@@H](O[C@@H]2[C@@H](O)[C@H](OCCc3ccc(O)c(O)c3)O[C@H](CO)[C@H]2OC(=O)/C=C/c2ccc(O)c(O)c2)[C@H](O)[C@H](O)[C@H]1O` gave a relative growth of 1.22.
In the case of `COc1ccc(NC(=O)N(C)C[C@H]2Oc3cc(C#CCN(C)C)ccc3S(=O)(=O)N([C@H](C)CO)C[C@@H]2C)cc1`, the relative growth is reported as 0.84.
`COCC(=O)N(C)C[C@@H]1Oc2cc(-c3ccc(OC)cc3)ccc2S(=O)(=O)N([C@@H](C)CO)C[C@H]1C` gave a relative growth of 0.975.
In the case of `O=C1O[C@@H](c2ccccc2)[C@@H](c2ccccc2)N2[C@@H](c3ccc(O)cc3)[C@]3(C(=O)Nc4ccc(C#CC5(O)CCCCCC5)cc43)[C@@H](C(=O)N3CCCCCCC3)[C@H]12`, the relative growth is reported as 0.84.
Molecule `COCC(=O)Nc1ccc2c(c1)C(=O)N(C)[C@H]1CC[C@H](CC(=O)N3CCc4ccccc4C3)O[C@H]1CO2` has a relative growth of 1.04.
In the case of `CC(=O)OC[C@]12[C@H](OC(=O)c3ccccc3)C[C@@H]3[C@@H](OC(C)=O)[C@]1(OC3(C)C)[C@H](C)C[C@H](OC(C)=O)[C@@H]2OC(C)=O`, the relative growth is reported as 0.869.
Molecule `CC1(C)C2CC[C@]3(C)C(C(=O)C=C4[C@@H]5C[C@@](C)(C(=O)O)CC[C@]5(C)CC[C@]43C)[C@@]2(C)CC[C@@H]1O` (stereo not given in full) has a relative growth of 1.21.
With `O=C(O)C[C@H]1NC(=O)c2ccccc21` the relative growth was 0.928.
`COc1c(Cl)c(C)c(C(=O)Oc2cc(C)c(C(=O)O)c(O)c2)c(O)c1Cl` was tested, and the relative growth was 0.99.
For `COc1ccc(NC(=O)N2C[C@H](O)COC[C@H]3O[C@H](CC(=O)NC4Cc5ccccc5C4)CC[C@@H]32)cc1`, the relative growth was 0.969.
`O=C(N[C@@H]1C=C[C@@H](CC(=O)N2CCOCC2)O[C@@H]1CO)c1ccccn1` was tested, and the relative growth was 0.809.
